Measurements: US7375124B2, “Use of α-phenylthiocarboxylic and α-phenyloxycarboxylic acids with serum-glucose-lowering and serum-lipid-lowering activity” (Sigma-Tau Industrie Farmaceutiche Riunite S.p.A., priority 2002, dated 2008)

Test system: C57BL/KsJ db/db mouse
Assay: Antidiabetic and serum-lipid-lowering activity in the db/db mouse (Experiments I and II)
Settings: Experiment I, after 18 days' treatment, OGTT glucose 3 g/kg

In the case of `CN(CCOc1ccc(CC2SC(=O)NC2=O)cc1)c1ccccn1` (centres unmarked) [Rosiglitazone, rosiglitazone, reference compound], the “Variation % (AUC glucose at OGTT) vs control” value is reported as −25% and the “AUC glucose at OGTT” value (fasting 18 hours, 5 hours after last treatment, mean ± S.E.) is reported as 38174 ± 3555Δ a.u.
